Reference: PubChem BioAssay AID651699 (Sanford-Burnham Center for Chemical Genomics, 2012)
The list shows a part of the results, in another mix than the full data. Calls of active or inactive are those of the source. No stated cut-off is given here; in the data, active means inhibition above about 36%; inactive means the rest.

Chains of the proteins cited; added tags and fusions are not shown. Lines headed by an entry give the natural chain unless they say otherwise; changes in a name come on top.
UniProt P61081: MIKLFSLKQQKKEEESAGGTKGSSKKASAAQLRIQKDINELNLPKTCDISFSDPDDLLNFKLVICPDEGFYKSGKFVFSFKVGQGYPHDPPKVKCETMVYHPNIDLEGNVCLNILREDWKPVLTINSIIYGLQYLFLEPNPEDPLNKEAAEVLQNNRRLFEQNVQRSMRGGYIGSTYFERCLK
UniProt Q13564: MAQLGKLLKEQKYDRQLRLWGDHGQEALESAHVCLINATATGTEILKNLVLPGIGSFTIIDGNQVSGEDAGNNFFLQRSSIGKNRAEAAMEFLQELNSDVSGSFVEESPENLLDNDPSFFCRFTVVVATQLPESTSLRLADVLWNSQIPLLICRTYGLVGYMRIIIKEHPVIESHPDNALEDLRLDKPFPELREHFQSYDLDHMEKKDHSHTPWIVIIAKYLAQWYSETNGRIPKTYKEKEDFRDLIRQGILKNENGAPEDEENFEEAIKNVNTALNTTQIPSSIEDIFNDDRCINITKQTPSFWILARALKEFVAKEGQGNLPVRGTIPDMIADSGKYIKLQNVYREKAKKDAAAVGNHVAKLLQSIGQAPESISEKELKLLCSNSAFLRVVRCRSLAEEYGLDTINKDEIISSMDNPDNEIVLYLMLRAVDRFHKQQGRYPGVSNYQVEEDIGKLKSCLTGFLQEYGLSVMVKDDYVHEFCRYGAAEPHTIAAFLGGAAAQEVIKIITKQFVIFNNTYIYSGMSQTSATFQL

The compounds below were run against NEDD8-conjugating enzyme Ubc12 (Homo sapiens) + NEDD8-activating enzyme E1 regulatory subunit (Homo sapiens) (UniProt P61081+Q13564) (assay: NEDD8 transfer onto cullin, blockade – biochemical, TR-FRET, uHTS, NAE and Ubc12, primary screen (AID 651699)). Details: TR-FRET cullin neddylation, at 25 µM, active compounds read high.

Structure (SMILES)	inhibition
O=C(NC(Sc1ccncn1)C(Cl)(Cl)Cl)c1ccccc1 (configuration not stated)	inactive: 9.1%
Oc1ccccc1CNc1ccccn1	inactive: -0.45%
O=[N+]([O-])C1C(O)C(O)C([N+](=O)[O-])C(O)C1O (configuration not stated)	inactive: -1.63%
CCCC1OP(N)(=O)OCC1CC (configuration not stated)	inactive: -4.72%
CC(=O)Nc1ccc([As](=O)(O)O)cc1	inactive: 2.35%
O=C(O)c1ccccc1[As](=O)(O)O	inactive: -0.11%
O=P(Nc1nc2ccc(Cl)cc2s1)(c1ccccc1)c1ccccc1	inactive: 26.9%
CN(C)P(=O)(N(C)C)n1c(Nc2ccccc2)nnc1-c1ccccc1	inactive: 1.21%
CN(C(=O)Cc1ccc(Cl)c(Cl)c1)[C@H]1CCCC[C@@H]1N1CCCC1	inactive: -1.15%
Cc1ccc(NP(=O)(Oc2ccccc2F)Oc2ccccc2F)nc1	inactive: 33.4%
Cc1cc(SC(NC(=O)c2ccc(F)cc2)C(Cl)(Cl)Cl)ncn1 (configuration not stated)	inactive: -0.22%
CCOP(=O)(Nc1ccccc1)OCC	inactive: 5.63%
CCN(N=Nc1nonc1N)c1nonc1N	inactive: -5.44%
Nc1cccc2ccc([As](=O)(O)O)cc12	inactive: -0.05%
O=P1(N(CCCl)CCCl)OCCCS1 (configuration not stated)	inactive: -1.93%
O=C(Nc1cc([As](=O)(O)O)ccc1O)c1ccccc1	inactive: -1.36%
CC(C)(C)C(=O)NC(Sc1ccncn1)C(Cl)(Cl)Cl (configuration not stated)	inactive: -3.08%
O=[N+]([O-])c1ncn(CCn2ncnc2[N+](=O)[O-])n1	inactive: -10.5%
COC(=O)C1(C)COP(=O)(Nc2ccccc2)OC1 (configuration not stated)	inactive: 4.37%
O=[N+]([O-])c1cccc(NC2=NCC(CBr)S2)c1 (configuration not stated)	inactive: -25.6%
O=C(O)CNc1ccc([As](=O)(O)O)cc1	inactive: 4.52%
COc1ccc(C2=NCC(CBr)S2)cc1 (configuration not stated)	inactive: 7.98%
CC(=O)N1C2C3N(C(C)=O)C1C1N(C(C)=O)C(C(N1C(C)=O)N3C(C)=O)N2C(C)=O	inactive: -1.37%
O=[N+]([O-])c1cccc2n[nH]nc12	inactive: -21.8%
O=[N+]([O-])c1cc([N+](=O)[O-])c(CCNc2ccccc2)c([N+](=O)[O-])c1	inactive: -37.8%
CCc1nc2c(n1)c1c(non1O)c1c2no[n+]1[O-]	inactive: -34.8%

Structure (SMILES)	inhibition
Cc1ccc(NP(=O)(Oc2ccccc2)Oc2ccccc2)nc1	inactive: 30%
C[N+]1=C2C=CC=CC=C2SC12C([N+](=O)[O-])=CC([N+](=O)[O-])=C[C-]2[N+](=O)[O-] (configuration not stated)	inactive: -37.4%
Nc1ccc([As](=O)(O)c2ccc(N)cc2)cc1	inactive: 5.13%
CCN(/C(=N/P(=O)(N1CCOCC1)N1CCOCC1)N1CCOCC1)c1ccc(OC)cc1	inactive: 4.23%
CN(C)C(=O)OCCc1n(C)cc[n+]1C	inactive: 0.04%
CC(C)c1nc(Nc2ccccc2)n(P(=O)(N(C)C)N(C)C)n1	inactive: -3.68%
CC(C)=N/N=C(\N)N[N+](=O)[O-]	inactive: 0.53%
CC1CCN(C(=O)Oc2c(Cl)cc(Cl)c3cccnc23)CC1	inactive: -19.3%
c1cc(-c2nn[nH]n2)ccc1-c1nn[nH]n1	inactive: 1.1%
O=P(Nc1nccs1)(c1ccccc1)c1ccccc1	inactive: -0.67%
CC(C)C(=O)NC(Sc1ccccc1)C(Cl)(Cl)Cl (configuration not stated)	inactive: -5.29%
c1nnnn1CCn1cnnn1	inactive: -2.36%
COc1ccc(N)c([N+](=O)[O-])c1[N+](=O)[O-]	inactive: -66.5%
Nc1ccc(CCCCOc2ccccc2)cc1	inactive: -29.1%
CN(C)C1(CNC(=O)c2ccc(Cl)c(S(N)(=O)=O)c2)CCCCC1	inactive: 3.22%
O=P(Nc1ccccn1)(c1ccc(Br)cc1)c1ccc(Br)cc1	inactive: 3.85%
C[C@H]1OP(=O)(Oc2ccccc2)[C@H](O)[C@H](O)[C@H]1N=[N+]=[N-] (some centres not stated)	inactive: -11.7%
O=P(Nc1nc2ccccc2s1)(c1ccccc1)c1ccccc1	inactive: 0.31%
O=[N+]([O-])c1ncn(CCn2cnc([N+](=O)[O-])n2)n1	inactive: -30.9%
CC(=O)NC(SC(=S)N(C)C)C(Cl)(Cl)Cl (configuration not stated)	inactive: -2.35%
O=[N+]([O-])c1ccc(O)c(/C=N/Nc2ccc([N+](=O)[O-])cc2[N+](=O)[O-])c1	inactive: -64.9%
O=[As](O)(c1ccccc1)c1ccc(O)cc1	inactive: 4.04%
C(Cc1nn[nH]n1)Cc1nn[nH]n1	inactive: 2.73%
Nc1ccc([As](=O)(O)c2ccc([N+](=O)[O-])cc2)cc1	inactive: -24.1%
O=C(OC1CN2CCC1CC2)c1cccc(Cl)c1 (configuration not stated)	inactive: -1.26%
O=C(NC1CCS(=O)(=O)C1)NP(=S)(Oc1ccccc1)Oc1ccccc1 (configuration not stated)	inactive: 11.7%

Structure (SMILES)	inhibition
CCNC(=S)/N=C(\N)N[N+](=O)[O-]	inactive: 13.6%
Cc1ccc(NP(=O)(Oc2cccc(C)c2)Oc2cccc(C)c2)nc1	inactive: 5.39%
c1ccc(-c2nn[nH]n2)c(-c2nn[nH]n2)c1	inactive: 18.6%
O=P1(N(CCCl)CCCl)OCCC2CCCCN21 (configuration not stated)	inactive: -4.23%
Cc1ccc(OP(=O)(Nc2ccccn2)Oc2ccc(C)cc2)cc1	inactive: -4.71%
CC(=O)NC(SC(=S)N(CC(C)C)CC(C)C)C(Cl)(Cl)Cl (configuration not stated)	inactive: 11.6%
COC(=O)c1cc2c(s1)N=C(c1ccccc1)N(C)P2(=O)N1CCOCC1 (configuration not stated)	inactive: -1.33%
CCC(=O)N1C2C3N(C(=O)CC)C1C1N(C(=O)CC)C(C(N1C(=O)CC)N3C(=O)CC)N2C(=O)CC	inactive: 1.13%
O=C(OC1CN2CCC1CC2)c1ccccc1 (configuration not stated)	inactive: 4.76%
O=c1c2cc([N+](=O)[O-])ccc2[nH]c2c([N+](=O)[O-])cc([N+](=O)[O-])cc12	inactive: -60.9%
CN(C)C(=O)Oc1noc2ccccc12	inactive: 3.78%
CC(NC(=O)COC(=O)C(O)(c1ccccc1)c1ccccc1)c1ccccc1 (configuration not stated)	inactive: 5.94%
Cc1ccccc1OP(=O)(Nc1ccccn1)Oc1ccccc1C	inactive: 26.7%
CCOc1ccc(C2=NCC(CBr)S2)cc1 (configuration not stated)	inactive: -2.45%
O=P1(Nc2nc3ccc(Cl)cc3s2)COc2ccccc2O1 (configuration not stated)	inactive: 13.6%
CCc1cc(O)c([N+](=O)[O-])c(C)c1[N+](=O)[O-]	inactive: -3.08%
CC(C)(C)C(=O)NC(Sc1ccccc1)C(Cl)(Cl)Cl (configuration not stated)	inactive: 0.06%
COC(=O)C1(C)COP(=O)(NCc2ccccc2)OC1 (configuration not stated)	inactive: 2.6%
CC(=O)c1ccc(N2CC2c2ccncc2)cc1 (configuration not stated)	inactive: -2.09%
N#C/C(=C\c1ccc(N(CCBr)CCBr)cc1)C(N)=O	inactive: -12.9%
C[C@H]1OP(=O)(Oc2ccccc2)C[C@@H]2O[C@@H]21 (some centres not stated)	inactive: 6.11%
C[C@@H]1C=CCP(=O)(Oc2ccccc2)O1 (some centres not stated)	inactive: -34.7%
Cc1ccccc1CN(C)C(=O)COC(=O)C(O)(c1ccccc1)c1ccccc1	inactive: 12.7%
CC(=O)Nc1ccc(Oc2c([N+](=O)[O-])cc([N+](=O)[O-])cc2[N+](=O)[O-])cc1	inactive: -44%
CC(=O)Nc1ccc([As](=O)(O)O)c(O)c1	inactive: 6.12%
